# Binding of CDR-mutated scFvs to a peptide of the spike HR2 region

All variants were tested on one target, the spike HR2 peptide PDVDLGDISGINAS (SARS-CoV-2).

Parent: Ab-91, a human scFv built as VL, a 15-residue (Gly4Ser)3 linker, VH. Only the CDRs of the heavy chain vary.
VL: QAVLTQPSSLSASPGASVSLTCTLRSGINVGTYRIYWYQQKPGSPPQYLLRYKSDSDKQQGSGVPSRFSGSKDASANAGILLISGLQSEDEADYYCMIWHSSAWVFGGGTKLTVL
VH: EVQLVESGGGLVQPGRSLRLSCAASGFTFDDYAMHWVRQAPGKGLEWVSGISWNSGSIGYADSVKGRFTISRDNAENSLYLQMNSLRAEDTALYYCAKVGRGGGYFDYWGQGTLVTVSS

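AAYL51 was designed without a model: most single CDR substitutions and a random sample of double and triple ones. AlphaSeq pools MATa yeast showing the antibodies with MATalpha yeast showing the peptide. The frequency of each diploid, read from paired DNA barcodes, reflects how well the two displayed proteins bind. Read counts were normalised to the haploid input and turned into Kd by a linear fit to BCL2-family pairs of known affinity, for each replicate. Each pool was mated in three replicate cultures.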

Changes read parent residue, position, new residue, counted from the first residue of the VH shown.
Every variant below is changed at V64 of the VH (sequential numbering).
The read-out is the apparent dissociation constant on a log10 scale (nM): the lower, the stronger.
The mean shown is taken over the replicates in which the pair was detected.
A pair that was not seen in any replicate is written "nd"; this usually means weak binding, but a binder can also be missed.
Order: sorted from the lowest average up, undetected variants last.
Parent in this assay: reference entry 1.86, copy in this library 0.88.

V64F: 0.77 (3 of 3 replicates).
D31S+V64I+R101H: 1.55 (3 of 3 replicates).
V64F+Y105P: 1.92 (3 of 3 replicates).
F27K+H35Q+V64M: 2.85 (1 of 3 replicates).
S57D+V64L+Y105K: 3.53 (3 of 3 replicates).
W53Q+V64Y+K65W: 3.73 (2 of 3 replicates).
D30Q+N54E+V64M: 3.83 (1 of 3 replicates).
D31K+S57C+V64E: 3.91 (1 of 3 replicates).
I58P+V64F+Y108C: 4.60 (1 of 3 replicates).
Y32G+N54V+V64Y: 4.91 (3 of 3 replicates).
S55F+V64S+D107R: 4.92 (2 of 3 replicates).
V64N+R101G+G104R: 4.97 (2 of 3 replicates).
V64Q+G104D: 5.07 (3 of 3 replicates).
S57R+V64G+G102C: 5.10 (1 of 3 replicates).
Y60P+V64G+Y105F: 5.11 (3 of 3 replicates).
A33Y+I51Y+V64M: 5.29 (1 of 3 replicates).
G59M+V64K: 5.29 (1 of 3 replicates).
V64S+V99T+Y108N: 5.40 (1 of 3 replicates).
Y32F+G50M+V64N: 5.63 (1 of 3 replicates).
H35K+V64G: 5.98 (1 of 3 replicates).
N54F+V64E+R101N: nd (0 of 3 replicates).
G50T+V64M+D107G: nd (0 of 3 replicates).
G50R+V64M: nd (0 of 3 replicates).
D62R+V64I+G104D: nd (0 of 3 replicates).
W53R+V64L+Y105H: nd (0 of 3 replicates).
D31F+N54A+V64A: nd (0 of 3 replicates).
D62A+V64F+Y108R: nd (0 of 3 replicates).
G26M+S52M+V64H: nd (0 of 3 replicates).
M34R+I51L+V64N: nd (0 of 3 replicates).
D31C+I51L+V64G: nd (0 of 3 replicates).
G50T+V64P+V99C: nd (0 of 3 replicates).
H35L+Y60C+V64I: nd (0 of 3 replicates).
V64K+G102R+G103N: nd (0 of 3 replicates).

Excerpt, the first 2 entries:

| changes | mean, log10 nM | replicates with signal |
|---|---|---|
| V64F | 0.77 | 3 of 3 |
| D31S+V64I+R101H | 1.55 | 3 of 3 |

Three control strains display no target. For library AAYL51, 21% of the pairings with them gave a signal, with a median of 4.54 and one signal in twenty below 3.26, so weak values seen in few replicates may be background.

Reference: Engelhart et al. 2022, doi:10.1038/s41597-022-01779-4. File: FLAb, binding data.